According to publication PMC11903679:

Key:
HLA-C*07:02/hβ2m (human) [1] = target: HLA-C*07:02/hβ2m (human)
HLA-B*08:01/hβ2m (human) [2] = target: HLA-B*08:01/hβ2m (human)
HLA-A*02:01/hβ2m (human) [3] = target: HLA-A*02:01/hβ2m (human)
HLA-C*07:02/hβ2m (human) [4] = experiment: in vitro refolding + SEC
HLA-B*08:01/hβ2m (human) [5] = experiment: in vitro refolding + SEC
HLA-A*02:01/hβ2m (human) [6] = experiment: in vitro refolding + SEC

Work on CSP 319–328 ([…]) (peptide) yielded a nanoDSF melting temperature (Tm) of the refolded peptide/HLA/hβ2m complex (HLA-C*07:02/hβ2m (human) [1]) of 61.2 °C, a nanoDSF melting temperature (Tm) of the refolded peptide/HLA/hβ2m complex (HLA-B*08:01/hβ2m (human) [2]) of 54.9 °C and a nanoDSF melting temperature (Tm) of the refolded peptide/HLA/hβ2m complex (HLA-A*02:01/hβ2m (human) [3]) of 61 °C. For the same substance, the apparent refolding yield (%) (HLA-C*07:02/hβ2m (human) [4]) was 36.9%, the apparent refolding yield (%) (HLA-B*08:01/hβ2m (human) [5]) was 58.8% and the apparent refolding yield (%) (HLA-A*02:01/hβ2m (human) [6]) was 31.3%.
